## Apparent affinities of Ab-14 variants for a coronavirus HR2 peptide

From the AlphaSeq antibody data of Li et al. 2023 (doi:10.1038/s41467-023-39022-2), copy in the FLAb collection.

Target: peptide PDVDLGDISGINAS, taken from heptad repeat 2 (HR2) of SARS-CoV-2 spike.

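The starting antibody came from a phage panning campaign against this peptide. The variants were designed computationally from a first round of random CDR variants and then made and measured. Group labels follow the data file (Ctrl: baseline library sampled from a position-specific scoring matrix, with some repeated check sequences; En: ensemble of fine-tuned language models; GP: Gaussian process model; HC: hill climbing; Gen: genetic algorithm; Gibbs: Gibbs sampling; a sequence that several methods proposed may carry one label only). The scFvs were displayed on barcoded MATa yeast, the peptide on MATalpha yeast. Pairs that bind mate more often; barcode pairs of the diploids are counted by sequencing. The ratio of observed to expected reads was calibrated, replicate by replicate, on BCL2-family standards whose Kd was known from biolayer interferometry. Each pool was mated in six replicate cultures.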

Parent scFv Ab-14: VH joined to VL by the linker GGGGSGGGGSGGGGS. Changes lie in the light chain CDRs alone.
VH: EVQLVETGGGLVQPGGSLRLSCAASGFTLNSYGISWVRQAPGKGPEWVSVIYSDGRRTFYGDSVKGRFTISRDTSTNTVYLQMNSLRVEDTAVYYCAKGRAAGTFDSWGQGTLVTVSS
VL: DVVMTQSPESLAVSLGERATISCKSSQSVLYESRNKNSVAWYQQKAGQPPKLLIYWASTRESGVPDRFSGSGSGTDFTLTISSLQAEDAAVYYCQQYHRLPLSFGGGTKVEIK

Each variant is given by its three light chain CDRs, as the data file delimits them; those of the parent are KSSQSVLYESRNKNSVA, WASTRES, QQYHRLPLS.
The read-out is the apparent dissociation constant on a log10 scale (nM): the lower, the stronger.
A mean of the replicates is given; it leaves out those without a signal.
"no signal" marks a missing value. The strain was present, yet no cells mated with the target were sequenced in any replicate, which points to weak or no binding.
The parent sequence was in this pool as ten entries: three were never detected, three once, and four in most replicates, with averages from 0.34 to 2.37.
Values of this round are not directly comparable with the first-round values of the same sequences.
Three control strains display no target. For all light chain designs, 4% of the pairings with them gave a signal, with a median of 2.64 and one signal in twenty below 1.59, so weak values seen in few replicates may be background.
The authors' rule: three or more of the six replicates give a measured affinity, fewer mean a poor binder.

CDR-L1 | CDR-L2 | CDR-L3 | group | mean log10 Kd (nM) | seen in
KVDQDDLYESRNKNSVA | QGSTRES | QQYHRLPLH | GP_Gibbs | 0.29 | 6/6
KLSQSVLYESRNKNSVA | WASLRES | QQYHHLPLS | Ctrl | 2.19 | 6/6
KVSEFMRGLMGRKDSIA | DNNTRGA | QQYDRLPLS | En_Gen | 2.50 | 4/6
KSSQSVLYMSRNKNSVA | WASTRES | QQYHRLPLS | Ctrl | 1.05 | 1/6
KLSGEMEYESRNKNSVA | HASERES | QDYHRLPLQ | GP_Gibbs | -0.36 | 6/6
KLDMWEPYGSRNKNSVA | SASTRCS | QQYHRLPLS | GP_Gibbs | 0.35 | 6/6
KLSGSELYESRNKNSVA | EASTRES | QQYHRLPLS | GP_Gen | 0.60 | 6/6
KESQSWSYESRNKNSVA | GASTRES | QQYHRLPLS | GP_HC | -0.13 | 6/6
KSSQSVLYESRNPNSVA | WASTRES | QEYHRLPLS | Ctrl | no signal | 0/6
KSSQSVLDESENKNSVA | WASTRES | QQYHRLPLS | Ctrl | 1.80 | 6/6
KVSISYLIESRNKNSVA | EASTRES | QQYHRLPLS | GP_HC | 0.33 | 6/6
TLGNQPTEMRDNKHAVA | DDNQRDR | QQYMRLPLS | En_Gibbs | 0.55 | 6/6
KISFQYRYEQLSKNSIA | EVVTRLK | QQYHRLPLS | En_HC | 1.30 | 6/6
KLPQSQLYESRMKNSVA | NASQRES | QQYHRLPLS | GP_Gen | -0.14 | 6/6
KWEQAVLYESVNKNSVA | WASTRES | QQYHRLPLS | Ctrl | no signal | 0/6
SLHDMNMVGLANNANVA | NASQLFS | QHYFRLPLQ | En_Gibbs | 0.16 | 6/6
KSSQSVLYESRNKNAVA | YASTRDS | QQYHRLPLS | Ctrl | 0.83 | 6/6
KMSQSVLAMSRNKNSVA | EASTRES | QQYHRLPLS | Ctrl | -0.64 | 6/6
KSSQQVLYESRCKNSVA | SASTRES | QQYHRLPLS | Ctrl | no signal | 0/6
KLSQSVLYESRNKNAVA | GASTRES | QQYHRLPLS | GP_Gen | -0.60 | 6/6
KLMQSTHIESFNKNNVA | EMTTRES | QSYDRLPLS | En_HC | 1.32 | 6/6
KLQQSMWYESRNKNSVA | SASQREV | QQYHRLPLS | GP_Gibbs | -0.03 | 6/6
SLAFTQHFGQSGGSNVA | EVQMREQ | QQYFRLPLG | En_Gibbs | 0.52 | 6/6
KSSQSVLYESRNVNSVA | AASKRES | QQYHRLPLF | Ctrl | 0.66 | 6/6
KLSQLFYKESMNKNNVA | EMTTRGS | QQYDRLPLS | En_HC | no signal | 0/6
MISQLYNMGQFAINSVA | QASIRNA | QQYDRLPLI | En_Gen | 1.54 | 4/6
KSEQSVLYESRNKNSVA | WADTRES | QQYHHLPLS | Ctrl | 1.57 | 5/6
KLMQMPEYESRNANSVA | NASTREE | QQYHRLPLS | GP_Gibbs | -0.09 | 6/6
KSSGSVQYEDRMVNSVA | NASQREE | QQYHRLPLS | GP_Gibbs | 1.47 | 6/6
KSSKSVLFESRNKNSVA | NASTREK | QQYHRLPLS | GP_HC | 1.03 | 6/6
IIGGSMLMESRNKNSVA | NAETREY | QHYDRLPLS | En_HC | 1.02 | 6/6
KSLWSQLYESNNKNSVA | HASTRED | QQYHRLPLS | GP_HC | 0.55 | 6/6
MLSSVLHMLGVKQNSIA | DLVLRAN | QQYARLPLM | En_Gen | no signal | 0/6
KLPQSHLYESRNKNSVA | NASTREV | QQYHRLPLS | GP_Gen | -0.04 | 6/6
KLSMSVWYESRMCNSVA | EASTRES | QQYHRLPLS | GP_Gibbs | 0.34 | 6/6
KYPQSEGYESRNQNSVA | MASQREE | QQYHRLPLS | GP_Gibbs | 0.00 | 6/6
QIEILGEEVTQHYSNVA | EQHVTDM | QQYFRLPLS | En_Gibbs | no signal | 0/6
KSSQSVPYASRNKNSVA | WASTRES | QQYHRLPLS | Ctrl | 2.27 | 6/6
KLDQSWLYESRNKNSVA | NASTRCS | QQYHRLPLS | GP_Gen | 0.07 | 6/6

The remaining entries, values ahead:

mean log10 Kd (nM) | seen in | CDR-L1 | CDR-L2 | CDR-L3 | group
4.34 | 1/6 | KVSQSVLYEHRNKNSVA | WASTRES | QQYHRPPLH | Ctrl
-0.07 | 6/6 | KVSQSWLYESRNKNSVA | NASTRCS | QQYHRLPLS | GP_Gen
no signal | 0/6 | KSSQSELYESRNKNSVA | WASTRES | GQYVRLPLS | Ctrl
0.51 | 6/6 | KSSQSVLYEERNKNSVA | DASTRPA | QQYHRLPLS | Ctrl
0.42 | 6/6 | TIGQSVHETSRVKNSVA | HASTRED | QQYDRLPLS | En_HC
0.64 | 6/6 | KISQMVRVGSTHSNSIA | EEQTRAK | QQYHRLPLA | En_Gen
1.30 | 6/6 | MMSQVSGSGTRHRNNVA | QTSMREI | QQYDRLPLI | En_Gen
no signal | 0/6 | MFSMMHAMQYNEESSIA | DAEALNS | QQYFELPLS | En_Gibbs
0.06 | 6/6 | KVSQSVDFESRNKNSVA | DASTRES | QQYHRLPLS | GP_HC
1.27 | 6/6 | QLHAYTQGFKRADGNIA | DISYRAI | QQYGRLPLS | En_Gibbs
-0.10 | 6/6 | KQSQSVLYESVNKNSVA | DASTRQS | QQYHRLPLS | GP_HC
2.34 | 3/6 | KMGMAFQQDLMDEYSVA | DHMLRVT | QQYGRLPLS | En_Gibbs
no signal | 0/6 | KLQQQTLYESRNKNSVA | NASTREE | QQYHRLPLS | GP_HC
0.31 | 6/6 | KLYQSVLYESRNKNSVA | NASTRMS | QQYHRLPLS | GP_Gen
2.57 | 5/6 | KSSQSVLYESRNKNSVA | WASTRGT | QQYHRLPLS | Ctrl
1.74 | 6/6 | KFSQSVLYEHRNRNSVA | WASTRES | QQYHRLPLS | Ctrl
2.65 | 4/6 | KSSQSVLYESRNKNSVA | WASTRES | QQYHILPVS | Ctrl
0.52 | 6/6 | RSSQSVLYESRNKNSVA | NASTRES | QQYHRLPLS | Ctrl
0.36 | 6/6 | KSSISEGYESMNKNSVA | EASTRES | QQYHRLPLS | GP_HC
0.41 | 6/6 | KLPQSFLYESRNKNSVA | QASTRES | QQYHRLPLS | GP_Gen
0.93 | 6/6 | MVYQAAMMGTSTRNSIA | NAEMRPD | QQYHRLPLI | En_Gen
-0.02 | 6/6 | KLSQSNLYESRNKNNVA | NASTRES | QQYHRLPLS | GP_Gen
0.18 | 6/6 | KQQQGDLMESRNKNSVA | HASERES | QQYHRLPLS | GP_Gibbs
0.56 | 6/6 | HISQMVMYGSCNKYNVA | QVSTREE | QQYHRLPLS | En_HC
-0.33 | 6/6 | KVSQSWLYESRNKNSVA | DASQRES | QQYHRLPLS | GP_Gen
-0.09 | 6/6 | KFSQLVLYEERQKNSVA | DASQRLS | QQYHRLPLS | GP_Gibbs
0.80 | 5/6 | AVSIEHMENTAIWNAIA | DTSLRNH | QQYYHLPLS | En_Gibbs
-0.34 | 6/6 | KLSQSTLYDSQNKNSVA | NASTRES | QQYKRLPLS | GP_HC
0.51 | 6/6 | TISQVMNTLTREGNNVA | DLAERFD | QQYFRLPLS | En_Gen
0.47 | 6/6 | KFSQMANSMSVSHSAVA | EMSTRES | QQYNRLPLA | En_Gen
-0.04 | 6/6 | KCSQSVLYESRNKNSVA | NASTRES | QQYHRLPLS | GP_Gen
1.53 | 1/6 | KSGQSVLYESRNKNNVA | WASTHES | QQYHRLPLS | Ctrl
2.14 | 1/6 | KSSHSVLYESRNKNSVA | WASTREV | QQYHRLPLS | Ctrl
0.00 | 6/6 | KASPSEEYESRNKNSVA | NASLRLE | QQYHRLPLS | GP_Gibbs
-0.46 | 6/6 | KMSQSVLMESRNKNSVA | DASQRES | QQYHRLPLS | GP_HC
1.81 | 6/6 | HIPQMVAYGSCNKNNVA | QVSTREE | QQYHRLPLS | En_HC
0.20 | 6/6 | KLSMSEWMGSRNKNSVA | SANTREE | QQYHRLPLS | GP_Gibbs
2.99 | 1/6 | MLSEVLHMLGAKKNSIA | DLVLREN | QQYHRLPLS | En_Gen
0.37 | 6/6 | HQSPSVLYESRNKNSVA | NASTREV | QQYHRLPLS | GP_HC

The closing 13 entries, repeated:

CDR-L1	CDR-L2	CDR-L3	group	mean log10 Kd (nM)	seen in
AVSIEHMENTAIWNAIA	DTSLRNH	QQYYHLPLS	En_Gibbs	0.80	5/6
KLSQSTLYDSQNKNSVA	NASTRES	QQYKRLPLS	GP_HC	-0.34	6/6
TISQVMNTLTREGNNVA	DLAERFD	QQYFRLPLS	En_Gen	0.51	6/6
KFSQMANSMSVSHSAVA	EMSTRES	QQYNRLPLA	En_Gen	0.47	6/6
KCSQSVLYESRNKNSVA	NASTRES	QQYHRLPLS	GP_Gen	-0.04	6/6
KSGQSVLYESRNKNNVA	WASTHES	QQYHRLPLS	Ctrl	1.53	1/6
KSSHSVLYESRNKNSVA	WASTREV	QQYHRLPLS	Ctrl	2.14	1/6
KASPSEEYESRNKNSVA	NASLRLE	QQYHRLPLS	GP_Gibbs	0.00	6/6
KMSQSVLMESRNKNSVA	DASQRES	QQYHRLPLS	GP_HC	-0.46	6/6
HIPQMVAYGSCNKNNVA	QVSTREE	QQYHRLPLS	En_HC	1.81	6/6
KLSMSEWMGSRNKNSVA	SANTREE	QQYHRLPLS	GP_Gibbs	0.20	6/6
MLSEVLHMLGAKKNSIA	DLVLREN	QQYHRLPLS	En_Gen	2.99	1/6
HQSPSVLYESRNKNSVA	NASTREV	QQYHRLPLS	GP_HC	0.37	6/6